What was measured:
Homo sapiens [1] = species on record: Homo sapiens; test: Selectivity ratio of IC50 for inhibition of His-tagged VHZ (unknown origin) to IC50 for inhibition of His-tagged LMW-PTP isoform A (unknown origin)
Homo sapiens [2] = species on record: Homo sapiens; test: Selectivity ratio of IC50 for inhibition of His-tagged PTPgamma (unknown origin) to IC50 for inhibition of His-tagged LMW-PTP isoform A (unknown origin)
Homo sapiens [3] = species on record: Homo sapiens; test: Selectivity ratio of IC50 for inhibition of His-tagged MKP3 (unknown origin) to IC50 for inhibition of His-tagged LMW-PTP isoform A (unknown origin)
Homo sapiens [4] = species on record: Homo sapiens; test: Selectivity ratio of IC50 for inhibition of His-tagged CDC14A (unknown origin) to IC50 for inhibition of His-tagged LMW-PTP isoform A (unknown origin)
Homo sapiens [5] = species on record: Homo sapiens; test: Selectivity ratio of IC50 for inhibition of His-tagged PP5 (unknown origin) to IC50 for inhibition of His-tagged LMW-PTP isoform A (unknown origin)
Homo sapiens [6] = species on record: Homo sapiens; test: Selectivity ratio of IC50 for inhibition of His-tagged PTP-PEST (unknown origin) to IC50 for inhibition of His-tagged LMW-PTP isoform A (unknown origin)
Homo sapiens [7] = species on record: Homo sapiens; test: Selectivity ratio of IC50 for inhibition of His-tagged CD45 (unknown origin) to IC50 for inhibition of His-tagged LMW-PTP isoform A (unknown origin)
Homo sapiens [8] = species on record: Homo sapiens; test: Selectivity ratio of IC50 for inhibition of His-tagged HePTP (unknown origin) to IC50 for inhibition of His-tagged LMW-PTP isoform A (unknown origin)
Homo sapiens [9] = species on record: Homo sapiens; test: Selectivity ratio of IC50 for inhibition of His-tagged SHP1 (unknown origin) to IC50 for inhibition of His-tagged LMW-PTP isoform A (unknown origin)
Homo sapiens [10] = species on record: Homo sapiens; test: Selectivity ratio of IC50 for inhibition of His-tagged PTP-H1 (unknown origin) to IC50 for inhibition of His-tagged LMW-PTP isoform A (unknown origin)
Homo sapiens [11] = species on record: Homo sapiens; test: Selectivity ratio of IC50 for inhibition of His-tagged PTP1B (unknown origin) to IC50 for inhibition of His-tagged LMW-PTP isoform A (unknown origin)
Homo sapiens [12] = species on record: Homo sapiens; test: Selectivity ratio of IC50 for inhibition of His-tagged PTPmu (unknown origin) to IC50 for inhibition of His-tagged LMW-PTP isoform A (unknown origin)
Homo sapiens [13] = species on record: Homo sapiens; test: Selectivity ratio of IC50 for inhibition of His-tagged FAP1 (unknown origin) to IC50 for inhibition of His-tagged LMW-PTP isoform A (unknown origin)
Homo sapiens [14] = species on record: Homo sapiens; test: Selectivity ratio of IC50 for inhibition of His-tagged TC-PTP (unknown origin) to IC50 for inhibition of His-tagged LMW-PTP isoform A (unknown origin)
Homo sapiens [15] = species on record: Homo sapiens; test: Selectivity ratio of IC50 for inhibition of His-tagged SSu72 (unknown origin) to IC50 for inhibition of His-tagged LMW-PTP isoform A (unknown origin)
Homo sapiens [16] = species on record: Homo sapiens; test: Selectivity ratio of IC50 for inhibition of His-tagged VHR (unknown origin) to IC50 for inhibition of His-tagged LMW-PTP isoform A (unknown origin)
Homo sapiens [17] = species on record: Homo sapiens; test: Selectivity ratio of IC50 for inhibition of His-tagged PTP-MEG2 (unknown origin) to IC50 for inhibition of His-tagged LMW-PTP isoform A (unknown origin)
Homo sapiens [18] = species on record: Homo sapiens; test: Selectivity ratio of IC50 for inhibition of His-tagged PTPepsilon (unknown origin) to IC50 for inhibition of His-tagged LMW-PTP isoform A (unknown origin)
Homo sapiens [19] = species on record: Homo sapiens; test: Selectivity ratio of IC50 for inhibition of His-tagged PTPsigma (unknown origin) to IC50 for inhibition of His-tagged LMW-PTP isoform A (unknown origin)
Homo sapiens [20] = species on record: Homo sapiens; test: Selectivity ratio of IC50 for inhibition of His-tagged LYP (unknown origin) to IC50 for inhibition of His-tagged LMW-PTP isoform A (unknown origin)
Homo sapiens [21] = species on record: Homo sapiens; test: Selectivity ratio of IC50 for inhibition of His-tagged PTPbeta (unknown origin) to IC50 for inhibition of His-tagged LMW-PTP isoform A (unknown origin)
Homo sapiens [22] = species on record: Homo sapiens; test: Selectivity ratio of IC50 for inhibition of His-tagged SHP2 (unknown origin) to IC50 for inhibition of His-tagged LMW-PTP isoform A (unknown origin)
Homo sapiens [23] = species on record: Homo sapiens; test: Selectivity ratio of IC50 for inhibition of His-tagged PTPalpha (unknown origin) to IC50 for inhibition of His-tagged LMW-PTP isoform A (unknown origin)
Homo sapiens [24] = species on record: Homo sapiens; test: Selectivity ratio of IC50 for inhibition of His-tagged LAR (unknown origin) to IC50 for inhibition of His-tagged LMW-PTP isoform A (unknown origin)

Structure (SMILES)	Ratio IC50 (Homo sapiens [1])	Ratio IC50 (Homo sapiens [2])	Ratio IC50 (Homo sapiens [3])	Ratio IC50 (Homo sapiens [4])	Ratio IC50 (Homo sapiens [5])	Ratio IC50 (Homo sapiens [6])	Ratio IC50 (Homo sapiens [7])	Ratio IC50 (Homo sapiens [8])	Ratio IC50 (Homo sapiens [9])	Ratio IC50 (Homo sapiens [10])	Ratio IC50 (Homo sapiens [11])	Ratio IC50 (Homo sapiens [12])	Ratio IC50 (Homo sapiens [13])	Ratio IC50 (Homo sapiens [14])	Ratio IC50 (Homo sapiens [15])	Ratio IC50 (Homo sapiens [16])	Ratio IC50 (Homo sapiens [17])	Ratio IC50 (Homo sapiens [18])	Ratio IC50 (Homo sapiens [19])	Ratio IC50 (Homo sapiens [20])	further results
O=C(Nc1nc2ccc([N+](=O)[O-])cc2s1)C(c1ccccc1)S(=O)(=O)O (stereo not drawn)	> 50	> 50	> 50	> 50	> 50	> 50	> 50	> 50	> 50	> 50	> 50	> 50	> 50	> 50	> 50	> 50	> 50	> 50	> 50	> 50	Ratio IC50 (Homo sapiens [21]): > 50; Ratio IC50 (Homo sapiens [22]): > 50; Ratio IC50 (Homo sapiens [23]): > 50; Ratio IC50 (Homo sapiens [24]): > 50
O=C(Nc1ccc2nc(C(F)(F)F)[nH]c2c1)C(c1ccccc1)S(=O)(=O)O (stereo not drawn)	> 35	> 35	> 35	> 35	> 35	> 35	> 35	> 35	> 35	> 35	> 35	> 35	> 35	> 35	> 35	> 35	> 35	> 35	> 35	> 35	Ratio IC50 (Homo sapiens [21]): > 35; Ratio IC50 (Homo sapiens [22]): > 35; Ratio IC50 (Homo sapiens [23]): > 35; Ratio IC50 (Homo sapiens [24]): > 35
